In US20250186411A1, “Methods of Treating Disorders Associated with Overactivation of IKKB” (The United States Government as represented by the …, priority 2023, published 2025):

System: KLF15
Assay: Cell survival in KLF15 knockdown (KLF15-shRNA) versus EV-shRNA podocytes
Settings: for cell survival in KLF15-shRNA podocytes: KLF15 knockdown; for cell survival in EV-shRNA podocytes: control podocytes

SMILES	cell survival in KLF15-shRNA podocytes	cell survival in EV-shRNA podocytes
CSc1ccc(NC(=O)Nc2ccc(C)nc2)cc1 [BT503]	lost	improved cell survival
CSc1ccc(NC(=O)c2ccc(O)cc2)cc1 [BT501]	lost	improved cell survival
CSc1ccc(NC(=O)Nc2ccc(C#N)cn2)cc1 [BT502]	lost	improved cell survival
